The numbers were not newly measured in US8221566B1, which cites them from elsewhere.

For this data set, the system named is bacteria. The settings on record: compared with common acid species.

With hydrogen chloride, the Bactericidal activity result is listed as “among the poorest bactericidal activities of common acid species”.
